Patent US8871934B2, “Fluorene compound and pharmaceutical use thereof” (Japan Tobacco Inc., priority 2008, dated 2014)

Target: human PDHK2 (hPDHK2) (Homo sapiens (Human), UniProt Q15119)
Experiment: Inhibitory action of PDHK activity in vitro (kinase reaction, residual PDH activity measured)
Assay type: biochemical
Experimental: In the case of human PDHK2 (hPDHK2, Genbank Accession No. NM_002611), modified hPDHK2 cDNA wherein FLAG-Tag sequence is added to the N terminal by a polymerase linkage reaction was prepared based on hPDHK2 cDNA clone (pReceiver-M01/PDK2-GeneCopoeia), and cloned into a vector (pET17b-Novagen). The recombinant construct was transformed into Escherichia coli (DH5α-TOYOBO). The recombinant clones were identified, plasmid DNA was isolated and subjected to the DNA sequence analysis. One clone which had the expected nucleic acid sequence was selected for expression work.
During the assay, the hPDHK2 enzyme concentration was set to the minimal concentration at which PDH is inhibited the most.
0.05 U/mL PDH (porcine heart PDH complex, Sigma P7032) and 1.6 μg/mL hPDHK2 were mixed in a buffer (50 mmol/L 3-morpholinopropanesulfonic acid (pH 7.0), 20 mmol/L dipotassium hydrogen phosphate, 60 mmol/L potassium chloride, 2 mmol/L magnesium chloride, 0.4 mmol/L EDTA, and 0.2% Pluronic F-68, 2 mmol/L dithiothreitol), the mixture was incubated at 4° C. overnight to give PDH/hPDHK2 complex. The test compound was diluted with dimethyl sulfoxide (DMSO). […] The mixture was incubated at room temperature for 90 min, and the residual PDH activity was measured. The absorbance at 340 nm before and after PDH reaction was measured on a microplate reader to detect NADH produced by the PDH reaction. […]

CN(C)C(=O)Oc1ccc2c(c1)C(O)(C(F)(F)F)c1ccccc1-2 (centres unmarked) [compound 237]
IC50 (PDHK inhibitory activity, class symbol of IC50): > 1000 nM
IC50 (read-out: PDHK inhibitory activity IC50): 2000 nM

Where two headings read alike, the source gives them in different places.
